Assay [1] concerns the target CRAF (Homo sapiens, UniProt P04049). In words: CRAF kinase activity assay (ADP-Glo). As to conditions: read-out: Kinase IC50 (nM) CRAF.
For assay [2], the system named is pERK in HCT-116 cells (KRAS G13D). Put plainly: Phospho-ERK inhibition (AlphaLISA SureFire Ultra p-ERK 1/2), HCT116. Particulars: for HCT116 pERK Ymin %: lowest % inhibition value of the IC50 curve; for IC50: read-out: HCT116 pERK IC50 in μM, HCT116 cells, 1 h treatment. Summed up: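 Cells in RPMI-1640 with 5% FBS were plated overnight, then exposed for 1 h to ten-point dilutions (typically 10 μM to 0.33 nM; 0.5% DMSO). Lysates were read by AlphaLISA SureFire Ultra for p-ERK1/2 Thr202/Tyr204; % inhibition used trametinib background and DMSO controls, with IC50 from four-parameter fits.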
(In general: Bead proximity is the source of the signal in Alpha formats.)

Chains of the proteins cited; added tags and fusions are not shown.
UniProt P04049, whole entry: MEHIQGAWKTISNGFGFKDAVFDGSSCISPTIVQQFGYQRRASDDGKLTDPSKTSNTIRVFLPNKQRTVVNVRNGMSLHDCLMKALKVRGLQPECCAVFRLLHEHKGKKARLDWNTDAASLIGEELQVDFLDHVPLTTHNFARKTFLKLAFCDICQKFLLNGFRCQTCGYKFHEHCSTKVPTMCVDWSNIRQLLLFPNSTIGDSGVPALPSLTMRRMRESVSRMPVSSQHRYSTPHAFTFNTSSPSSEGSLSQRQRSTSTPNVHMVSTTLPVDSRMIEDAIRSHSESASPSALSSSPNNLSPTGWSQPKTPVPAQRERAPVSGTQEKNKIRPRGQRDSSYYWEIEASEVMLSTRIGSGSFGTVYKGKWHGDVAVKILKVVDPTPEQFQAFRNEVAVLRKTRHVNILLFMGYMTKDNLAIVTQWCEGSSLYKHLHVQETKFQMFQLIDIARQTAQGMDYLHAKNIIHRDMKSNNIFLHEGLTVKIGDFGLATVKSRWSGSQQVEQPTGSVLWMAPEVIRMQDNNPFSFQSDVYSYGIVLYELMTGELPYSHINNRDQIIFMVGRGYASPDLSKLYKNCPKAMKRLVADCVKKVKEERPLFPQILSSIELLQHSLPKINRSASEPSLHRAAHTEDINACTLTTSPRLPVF

Assay [3] concerns pERK in SW480 cells (KRAS G12D). Put plainly: Phospho-ERK inhibition (AlphaLISA), SW480. As to conditions: lowest % inhibition value of the IC50 curve, SW480. The protocol:
All cancer cell lines (A375, A101D, A2058, RKO, HT29 SK-MEL 30, IPC298, HepG2, HCT-116, Lovo, SWV620, SW480, NCI-H358, NCI-H2122, Calu-6, NCIH2087, NCIH1755, NCIH1666 and Mewo) were obtained from ATCC and cultured in RPMI-1640 medium (Gibco) supplemented with 5% heat inactivated fetal bovine serum (FBS, Wisent) at 37° C. under 5% CO2. Cells were maintained in T175 flasks (Greiner). They were passaged by removing the culture medium, washing once in 10 mL of room temperature Phosphate Buffered Saline (PBS; Wisent) and incubating at 37° C. with 2 mL of 0.05% Trypsin (Thermo-Fisher). Trypsin was then inactivated by adding complete growth medium and the cells were then replated in a T175 culture dish at the appropriate dilution. All cell lines were routinely tested for mycoplasma contamination. Tissue type and mutational status of each cell line can be found in Table B.
AlphaLISA® SureFire® Ultra™ p-ERK 1/2 (Thr202/Tyr204) analysis was conducted on cells plated in 100 μL of complete RPMI-1640 growth medium in 96-well flat-bottomed transparent dishes (Costar) at a density indicated in Table C. Cells were maintained overnight at 37° C. under 5% CO2 before treatment with compounds' dilution series for one hour. The cell density in cells/cm^2 corresponds to cell number divided by the area of one well of a 96-well plate ([…]).
In a dilution series 100 μL/well of test substance dilution prepared in complete RPMI-1640 growth media was added to the cells. The dilution series is selected so that ten concentrations cover a range from 10 μM to 0.33 nM. If necessary the initial concentration of 10 μM is increased to 100 μM or lowered to 1 μM (as in the case of A375 and H1666 cells, which are generally more sensitive to the compounds) and further dilution is carried out accordingly. The final concentration of DMSO in the assay is set at 0.5%.
After treatment, media was removed and cells were lysed in 50 μL of 1× AlphaScreen Ultra Lysis Buffer (Perkin Elmer). The AlphaLISA® SureFire® Ultra™ p-ERK 1/2 (Thr202/Tyr2O4) (PerkinElmer) reactions were performed with 5 μL of cell lysate according to the manufacturer's specifications in 384-well proxyplates (Perkin Elmer) followed by overnight incubation of the reactions at room temperature in a humidified chamber. After completion of the reactions, the signals were recorded on an EnVision plate reader (Perkin Elmer) using built in AlphaLISA® settings.
The effect of each compound dilution on the pERK signal was expressed in % inhibition and calculated as follows. An internal 100% inhibition control ([…] trametinib, cat #HY-10999; MedChem Express; CAS #871700-17-3) was included in each plate and used as a measure of pERK background. First, the value obtained for trametinib was subtracted from each data point. The average of DMSO (vehicle) controls (set as 0% inhibition) was established and used to calculate % inhibition: % inhibition=100*(1-((pERK signalcompound)/(pERK signalDMSO)))
The ability of each compound to inhibit pERK signal was expressed as an IC50 value obtained by plotting the inhibition values for each data point of a dilution series and fitting the obtained curves using a log(agonist) versus response-variable slope (four parameters) function using GraphPadPrism (V7.0) or Dotmatics Screening Ultra platform.
When present, paradoxical pERK induction is inferred from the negative % inhibition values observed in the pERK IC50 curves of a compound.

Structures are written as SMILES.

By IC50 is commonly meant the concentration that gives 50% inhibition. Consider `COc1ccc(S(=O)(=O)Nc2ccc(F)c(Nc3ncnc4ccc(-n5cnc6ccccc65)nc34)c2F)c(Cl)c1`, for which, in assay [1], the IC50 is less than 10 nM. In addition, in assay [2], the “HCT116 pERK Ymin %” value was 4% and the IC50 is less than 0.5 µM. Also, in assay [3], the “SW480 pERK (Ymin %)” value is −4%.

Take `COc1ccc(S(=O)(=O)Nc2ccc(F)c(Nc3ncnc4ccc(-n5cnc6ccccc65)nc34)c2F)cc1OC`: in assay [1], the IC50 is more than 50 nM. Further, in assay [2], the “HCT116 pERK Ymin %” value worked out at 1% and the IC50 is 1 to 10 µM. Besides, the “SW480 pERK (Ymin %)” value in assay [3] is given as 16%.

In the case of `CO[C@@H]1CCN(S(=O)(=O)Nc2ccc(F)c(Nc3ncnc4ccc(-n5cnc6ccccc65)nc34)c2F)C1`, in assay [2], the “HCT116 pERK Ymin %” value came out at 6% and the IC50 fell in the range of 0.5 to 1 µM. Besides, the “SW480 pERK (Ymin %)” value in assay [3] is listed as 4.3%.

In the case of `O=S(=O)(Nc1ccc(F)c(Nc2ncnc3ccc(-n4cnc5ccccc54)nc23)c1F)c1ccc(F)cc1Cl`, in assay [2], the “HCT116 pERK Ymin %” value came out at 6.9% and the IC50 was in the range of 0.5 to 1 µM. Further, the “SW480 pERK (Ymin %)” value in assay [3] is on record as 14%.

Consider `O=S(=O)(Nc1ccc(F)c(Nc2ncnc3ccc(-n4cnc5ccccc54)nc23)c1F)c1c(F)cccc1Cl`, for which, in assay [1], the IC50 was less than 10 nM. In addition, in assay [2], the “HCT116 pERK Ymin %” value is given as 10% and the IC50 was in the range of 0.5 to 1 µM. Besides, in assay [3], the “SW480 pERK (Ymin %)” value is given as 4.4%.

On to `O=S(=O)(Nc1ccc(F)c(Nc2ncnc3ccc(-n4cnc5ccccc54)nc23)c1F)c1sccc1Cl`, for which the IC50 in assay [1] is less than 10 nM; in assay [2] it was 0.5 to 1 µM. For the same compound, the “HCT116 pERK Ymin %” value in assay [2] was 2.6%. For the same compound, the “SW480 pERK (Ymin %)” value in assay [3] was found to be 3.3%.

Take `Cc1ccc(C)c(S(=O)(=O)Nc2ccc(F)c(Nc3ncnc4ccc(-n5cnc6ccccc65)nc34)c2F)c1`: in assay [2], the “HCT116 pERK Ymin %” value is given as −9% and the IC50 was 1 to 10 µM. For the same compound, the “SW480 pERK (Ymin %)” value in assay [3] is −4%.

On to `O=S(=O)(Nc1ccc(F)c(Nc2ncnc3ccc(-n4cnc5ccccc54)nc23)c1F)c1ccc(Cl)cc1Cl`, for which, in assay [2], the “HCT116 pERK Ymin %” value turned out to be 11% and the IC50 was in the range of 0.5 to 1 µM. In addition, in assay [3], the “SW480 pERK (Ymin %)” value is on record as −2%.

`Cc1c(F)cccc1S(=O)(=O)Nc1ccc(F)c(Nc2ncnc3ccc(-n4cnc5ccccc54)nc23)c1F`: the results for the IC50 in assay [1] and in assay [2] were less than 10 nM and less than 0.5 µM, respectively. Moreover, the “HCT116 pERK Ymin %” value in assay [2] is reported as −8.6%. Also, the “SW480 pERK (Ymin %)” value in assay [3] is −10%.

Take `O=S(=O)(Nc1ccc(F)c(Nc2ncnc3ccc(-n4cnc5ccccc54)nc23)c1F)c1ccccc1C(F)(F)F`: the IC50 in assay [1] was less than 10 nM. Moreover, in assay [2], the “HCT116 pERK Ymin %” value is listed as −1% and the IC50 was in the range of 1 to 10 µM. Besides, in assay [3], the “SW480 pERK (Ymin %)” value was 4%.

For `Cc1c(Cl)cccc1S(=O)(=O)Nc1ccc(F)c(Nc2ncnc3ccc(-n4cnc5ccccc54)nc23)c1F`, the figures for the IC50 in assay [1] and in assay [2] were less than 10 nM and less than 0.5 µM, respectively. Moreover, in assay [2], the “HCT116 pERK Ymin %” value turned out to be 1.9%. In assay [3], the “SW480 pERK (Ymin %)” value is given as 0.6%.

Take `Cc1ccc(S(=O)(=O)Nc2ccc(F)c(Nc3ncnc4ccc(-n5cnc6ccccc65)nc34)c2F)c(C)c1`: in assay [2], the “HCT116 pERK Ymin %” value amounted to 6.4% and the IC50 lay within 0.5 to 1 µM. Besides, the “SW480 pERK (Ymin %)” value in assay [3] was −3.8%.

Take `Cc1cccc(S(=O)(=O)Nc2ccc(F)c(Nc3ncnc4ccc(-n5cnc6ccccc65)nc34)c2F)c1C`: the values for the IC50 in assay [1] and in assay [2] were more than 50 nM and 0.5 to 1 µM, respectively. Further, the “HCT116 pERK Ymin %” value in assay [2] is −2.1%. For the same compound, in assay [3], the “SW480 pERK (Ymin %)” value is given as −8.5%.

As for `COc1ccc(S(=O)(=O)Nc2ccc(F)c(Nc3ncnc4ccc(-n5cnc6ccccc65)nc34)c2F)c(F)c1`, in assay [2], the “HCT116 pERK Ymin %” value amounted to 5.6% and the IC50 fell in the range of 0.5 to 1 µM. For the same compound, the “SW480 pERK (Ymin %)” value in assay [3] is 5%.

As to `Cc1cccc(Cl)c1S(=O)(=O)Nc1ccc(F)c(Nc2ncnc3ccc(-n4cnc5ccccc54)nc23)c1F`, in assay [2], the “HCT116 pERK Ymin %” value is −9% and the IC50 lay within 1 to 10 µM. Further, in assay [3], the “SW480 pERK (Ymin %)” value is reported as 1%.

Source of the values: patent US12139488B2, “Pyrido[3,2-d]pyrimidine compounds uses thereof for treating a proliferative disease” (Universite de Montreal, priority 2021, dated 2024).
